From PubChem BioAssay AID798 (PCMD, 2007) come the findings set out here.

Sequences of proteins named here, by UniProt entry; tags and fusion partners are left off. Residues count along the entry.
UniProt P03951, 19-387 limits assumed: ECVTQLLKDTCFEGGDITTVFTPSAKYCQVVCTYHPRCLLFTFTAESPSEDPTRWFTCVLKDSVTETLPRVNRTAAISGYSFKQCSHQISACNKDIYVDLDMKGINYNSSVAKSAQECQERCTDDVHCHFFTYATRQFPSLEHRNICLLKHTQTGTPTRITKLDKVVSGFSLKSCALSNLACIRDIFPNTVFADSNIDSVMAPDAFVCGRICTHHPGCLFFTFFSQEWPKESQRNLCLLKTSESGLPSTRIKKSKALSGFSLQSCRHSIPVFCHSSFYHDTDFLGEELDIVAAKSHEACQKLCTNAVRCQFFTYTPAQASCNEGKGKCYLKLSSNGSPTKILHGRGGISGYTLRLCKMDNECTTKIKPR
UniProt P03951, 388-625 limits assumed: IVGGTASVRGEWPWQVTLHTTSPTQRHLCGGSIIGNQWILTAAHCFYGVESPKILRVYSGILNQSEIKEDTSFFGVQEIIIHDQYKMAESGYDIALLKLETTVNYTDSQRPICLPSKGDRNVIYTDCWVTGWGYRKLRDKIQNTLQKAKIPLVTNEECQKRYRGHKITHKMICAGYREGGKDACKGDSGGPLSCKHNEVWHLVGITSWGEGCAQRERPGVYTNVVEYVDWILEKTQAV

The term inhibition denotes the change of the read-out against control, counted positive when it falls.

The entries are a selection whose mix differs from that of the whole data set. Some of these compounds have results that are not shown, active ones among them. The source made the active and inactive calls.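 Rule for the calls: active = inhibition of at least 40%; inactive = inhibition below 40%.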

The target in the experiment is Coagulation factor XI (Homo sapiens) (UniProt P03951). As to the kind of experiment: factor XIa enzyme inhibition, large library – biochemical, 1536-well, primary screen (AID 798).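 Note: fluorescence of freed AMC excited at 355 nm; 0% = enzyme without compound and 100% = no enzyme blank.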 The following applies: purified FXIa, Boc-Glu-Ala-Arg-AMC fluorogenic substrate; at 5 µM; stronger effect = higher value.
For the compound `CCN1CCCC(OC(=O)C2(O)c3ccccc3C=Cc3ccccc32)C1` (stereo unspecified), the inhibition was inactive: 17.1%.
The value for `C=CCN1CCN(CCOC(=O)C(O)(c2ccccc2)c2ccccc2)CC1` was inactive: -3.86%; that for `CN(C)C1CCCC1OC(=O)C(O)(c1ccccc1)c1ccccc1` (stereo unspecified) was inactive: 1.98%.
Under `Cc1ccccc1C(=O)NCC1(N2CCCCC2)CCCCC1` stands inactive: 3.25%; under `CC(C)N1C(=O)CC2(CCN(CCOC(=O)C(O)(c3ccccc3)c3ccccc3)CC2)C1=O`, inactive: -1.1%.
For the compound `CCN(CC)CC(C)C(C)OC(=O)C(O)(c1ccccc1)c1ccccc1` (stereo unspecified), the inhibition is inactive: -1.16%.
Consider `O=C(NCC1(N2CCCCC2)CCCCC1)c1cc([N+](=O)[O-])ccc1Cl`, for which the inhibition was inactive: 1.69%.
The value for `CN(C)c1cccc(C(=O)NCC2(N(C)C)CCCCC2)c1` was inactive: 7.2%.
The value for `COc1ccc(Br)c(C(=O)NCC2(N3CCCCC3)CCCCC2)c1` was inactive: 11.7%.
Turning to `O=C(OC1CN2CCC1CC2)C(CO)(c1ccccc1)c1ccccc1` (stereo unspecified), the inhibition is inactive: 4.46%.
Under `COc1cccc(C(=O)NCC2(N3CCCCC3)CCCCC2)c1` stands inactive: -1.2%.
